pKi: −log10 of the molar value.
Biological target: Prothrombin/thrombin (Homo sapiens) (UniProt P00734)
Experiment: Inhibition of amidolytic activity of thrombin

**Q.** `N=C(N)N1CCC(CNC(=O)[C@@H]2CC[C@H]3CN(C(=O)CC(c4ccccc4)c4ccccc4)CC(=O)N32)CC1` [(6S,8aS)-2-(3,3-Diphenyl-propionyl)-4-oxo-octahydro-pyrrolo[1,2-a]pyrazine-6-carboxylic acid (1-carbamimidoyl-piperidin-4-ylmethyl)-amide] was tested. Which pKi did it give?
**A.** 7.10
